Measured values published in patent US20050136053A1 (DYAX, published 2005).

Protein sequences, listed by entry. Tags and fused reporters are not part of them. Lines headed by an entry give the natural chain unless they say otherwise; changes in a name come on top.
UniProt P14753: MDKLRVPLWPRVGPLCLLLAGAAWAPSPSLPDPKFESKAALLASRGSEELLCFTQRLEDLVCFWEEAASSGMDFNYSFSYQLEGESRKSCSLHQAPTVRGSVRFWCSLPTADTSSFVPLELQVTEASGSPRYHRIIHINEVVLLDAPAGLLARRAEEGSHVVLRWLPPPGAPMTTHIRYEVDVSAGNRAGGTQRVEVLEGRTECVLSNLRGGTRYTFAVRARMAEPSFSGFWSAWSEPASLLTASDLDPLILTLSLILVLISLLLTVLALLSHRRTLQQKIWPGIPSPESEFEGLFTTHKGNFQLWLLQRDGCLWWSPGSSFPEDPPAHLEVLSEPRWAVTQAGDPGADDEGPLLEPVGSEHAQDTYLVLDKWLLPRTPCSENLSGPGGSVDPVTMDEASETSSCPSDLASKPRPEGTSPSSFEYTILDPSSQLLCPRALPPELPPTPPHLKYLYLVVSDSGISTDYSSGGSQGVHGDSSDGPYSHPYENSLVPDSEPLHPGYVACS

Molecular target: Tie1-EpoR chimeric receptor on Ba/F3 cells (human; mouse) (UniProt P14753)
Assay: cell-based or functional assay

Substance	Average MTT activity in BaF3 cell assay (treatment E3 + PA1)	Average MTT activity in BaF3 cell assay (treatment E3 + PA10)
anti-Tie1 antibody p-A1, IgG	0.6	
anti-Tie1 antibody p-A10, IgG		0.65
